The entries are a selection whose mix differs from that of the whole data set. Calls of active or inactive are those of the source.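 How the source made its calls: active means mean replicate inhibition above about 25%, with every replicate also reaching it (limit read from the data, passing the limit was not always enough); inconclusive means only one of those two criteria met; inactive means neither criterion met.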

By UniProt entry, the sequences of proteins in these tests, tags left out. Where a name states a change or a piece, a line headed by the entry shows the natural chain unless it says otherwise.
UniProt Q15084: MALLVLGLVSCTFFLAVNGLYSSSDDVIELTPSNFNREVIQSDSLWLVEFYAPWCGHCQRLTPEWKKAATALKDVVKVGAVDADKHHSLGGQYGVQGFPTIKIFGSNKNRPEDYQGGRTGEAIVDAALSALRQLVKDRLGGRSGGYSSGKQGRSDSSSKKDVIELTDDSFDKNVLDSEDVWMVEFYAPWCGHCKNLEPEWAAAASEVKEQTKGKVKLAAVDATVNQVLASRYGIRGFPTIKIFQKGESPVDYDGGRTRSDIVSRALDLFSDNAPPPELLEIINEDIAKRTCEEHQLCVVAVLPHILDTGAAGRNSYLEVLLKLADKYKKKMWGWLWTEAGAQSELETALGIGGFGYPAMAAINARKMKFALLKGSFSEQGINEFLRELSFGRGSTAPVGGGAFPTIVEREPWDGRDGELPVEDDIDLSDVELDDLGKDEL

This test addresses Protein disulfide-isomerase A6 (Homo sapiens) (UniProt Q15084). The experiment in a line: inhibitors of ERp5-driven insulin aggregation, primary screen, biochemical, turbidity, absorbance 650 nm, single point (AID 651711). The note with it: 90 min, at 9.99 µM, stronger effect = higher value.
Consider `Nc1cccc2ccc([As](=O)(O)O)cc12`, for which the inhibition (commonly the change of the read-out against control, counted positive when it falls) is inactive: 4.74%.

For `COc1ccccc1OP(=O)(Nc1ccc(C)cn1)Oc1ccccc1OC`, the inhibition was inactive: 5.64%.

Regarding `Cc1ccc(OP(=O)(Nc2nccs2)Oc2ccc(C)cc2)cc1`, the inhibition was inactive: -2.07%.

With `Clc1ccc(Cl)c(NC2=NCC(CBr)S2)c1` (centres undefined), the inhibition is inactive: 3.51%.

In the case of `NC(=O)c1cc([N+](=O)[O-])cc([N+](=O)[O-])c1N`, the inhibition is inactive: -5.84%.

For the compound `CN(C(=O)Cc1ccc(Cl)c(Cl)c1)[C@H]1CCCC[C@H]1N1CCCC1`, the inhibition is inactive: -4.03%.

As for `Cc1ccc(N/C(=N/P(=O)(N2CCOCC2)N2CCOCC2)N2CCOCC2)cc1`, the inhibition is inactive: 0.942%.

With `Nc1cc(N)c2nonc2c1[N+](=O)[O-]`, the inhibition is inactive: -5.41%.

On to `CC(C)CC(=O)NC(Sc1ccc(Cl)cc1)C(Cl)(Cl)Cl` (centres undefined), for which the inhibition is inactive: 3.74%.

With `O=C(NC(Sc1ccncn1)C(Cl)(Cl)Cl)c1ccccc1` (centres undefined), the inhibition was inactive: -0.0995%.

Take `CCc1cc(O)c([N+](=O)[O-])c(C)c1[N+](=O)[O-]`: the inhibition was inactive: 1.91%.

As for `CC(C)(C)C(=O)NC(Sc1ccccc1)C(Cl)(Cl)Cl` (centres undefined), the inhibition is inactive: 2.52%.

For the compound `CCOc1ccc(C2=NCC(CBr)S2)cc1` (centres undefined), the inhibition is inactive: 2.97%.

For the compound `CC(=O)Nc1ccc([As](=O)(O)O)c(O)c1`, the inhibition was inactive: 5.68%.

`CC(=O)Nc1ccc(Oc2c([N+](=O)[O-])cc([N+](=O)[O-])cc2[N+](=O)[O-])cc1`: the inhibition was inactive: -0.145%.

On to `CC(=O)c1ccc(N2CC2c2ccncc2)cc1` (centres undefined), for which the inhibition was inactive: 6.64%.

On to `N#C/C(=C\c1ccc(N(CCBr)CCBr)cc1)C(N)=O`, for which the inhibition was inactive: -1.29%.

On to `COC(=O)C1(C)COP(=O)(NCc2ccccc2)OC1` (centres undefined), for which the inhibition is inactive: 2.35%.

Take `Cc1ccccc1CN(C)C(=O)COC(=O)C(O)(c1ccccc1)c1ccccc1`: the inhibition is inactive: 5.17%.

As to `C[C@H]1OP(=O)(Oc2ccccc2)C[C@@H]2O[C@@H]21` (some centres undefined), the inhibition is inactive: 4.48%.

As for `C[C@@H]1C=CCP(=O)(Oc2ccccc2)O1` (some centres undefined), the inhibition is inactive: -1.06%.

On to `O=P1(N(CCCl)CCCl)OCCC2CCCCN21` (centres undefined), for which the inhibition was inactive: -1.53%.

For `CCNC(=S)/N=C(\N)N[N+](=O)[O-]`, the inhibition was inactive: -2.84%.

As to `O=C(NC1CCS(=O)(=O)C1)NP(=S)(Oc1ccccc1)Oc1ccccc1` (centres undefined), the inhibition was inactive: -3.41%.

`c1ccc(-c2nn[nH]n2)c(-c2nn[nH]n2)c1`: the inhibition was inactive: 8.37%.

Consider `Cc1ccc(NP(=O)(Oc2cccc(C)c2)Oc2cccc(C)c2)nc1`, for which the inhibition was inactive: 2.31%.

On to `CC(NC(=O)COC(=O)C(O)(c1ccccc1)c1ccccc1)c1ccccc1` (centres undefined), for which the inhibition is inactive: 0.605%.

For `Cc1ccccc1OP(=O)(Nc1ccccn1)Oc1ccccc1C`, the inhibition is inactive: 0.416%.

`O=c1c2cc([N+](=O)[O-])ccc2[nH]c2c([N+](=O)[O-])cc([N+](=O)[O-])cc12`: the inhibition was inactive: 0.252%.

For the compound `CN(C)C(=O)Oc1noc2ccccc12`, the inhibition is inactive: 2.94%.

In the case of `Cc1ccc(OP(=O)(Nc2ccccn2)Oc2ccc(C)cc2)cc1`, the inhibition was inactive: -9.78%.

Regarding `O=C(OC1CN2CCC1CC2)c1ccccc1` (centres undefined), the inhibition was inactive: 1.27%.

For the compound `O=P(Nc1nc2ccccc2s1)(c1ccccc1)c1ccccc1`, the inhibition was inactive: 9.8%.

`C[C@H]1OP(=O)(Oc2ccccc2)[C@H](O)[C@H](O)[C@H]1N=[N+]=[N-]` (some centres undefined): the inhibition is inactive: 3.78%.

Consider `COc1ccc(N)c([N+](=O)[O-])c1[N+](=O)[O-]`, for which the inhibition was inactive: -3.61%.

In the case of `Nc1ccc(CCCCOc2ccccc2)cc1`, the inhibition was inactive: -2.85%.

Regarding `O=P(Nc1ccccn1)(c1ccc(Br)cc1)c1ccc(Br)cc1`, the inhibition was inactive: 5.42%.

Turning to `CN(C)C1(CNC(=O)c2ccc(Cl)c(S(N)(=O)=O)c2)CCCCC1`, the inhibition was inactive: 2.75%.

As for `C/C(N)=N\P(=O)(OCc1ccccc1)OCc1ccccc1`, the inhibition was inactive: -0.754%.

As to `C(Cc1nn[nH]n1)Cc1nn[nH]n1`, the inhibition is inactive: -0.285%.

With `Nc1ccc([As](=O)(O)c2ccc([N+](=O)[O-])cc2)cc1`, the inhibition is inactive: 3.78%.

As for `O=[N+]([O-])c1ncn(CCn2cnc([N+](=O)[O-])n2)n1`, the inhibition is inactive: 7.31%.

On to `CC(=O)NC(SC(=S)N(C)C)C(Cl)(Cl)Cl` (centres undefined), for which the inhibition was inactive: -6.46%.

As for `O=[As](O)(c1ccccc1)c1ccc(O)cc1`, the inhibition was inactive: 2.64%.
